From patent publication US11565264B2, “Expandable arrays and methods of use” (Rutgers, The State University of New Jersey, priority 2018, dated 2023)

Tested on: U87 spheres
Conditions: PEGDA250 at 7.2 μM; spheres cultured one week
Text: FIG. 15A illustrates the results of the cell titer glo assay that utilizes ATP levels and was used to determine GBM viability in the presence of component biomaterials. FIGS. 15B and 15C are low-power images of bright fields of spheres cultured for one week in the presence of the indicated chemicals and concentrations. The insets are higher power (20×) magnification of the 5× images.

## poly (Ethylene glycol) diacrylate 250 [PEGDA250]
  cell viability (ATP levels, cell titer glo): significant loss of cell viability
